Test results taken from PubChem BioAssay AID2595 (National Center for Advancing Translational Sciences (NCATS), 2010).
Only a part is listed here, and it is no random draw. Records with an inconclusive call do not appear. Calls of active or inactive are those of the source. Calls come from the whole dose curve; as a rule, active = well fitted inhibition curve with a large enough effect; inconclusive = small, poorly fitted or top-dose-only effect, or effect the other way; inactive = flat fitted curve, though single readings scatter.

By UniProt entry, the sequences of proteins in these tests, tags left out. Where a name states a change or a piece, a line headed by the entry shows the natural chain unless it says otherwise.
UniProt P04062: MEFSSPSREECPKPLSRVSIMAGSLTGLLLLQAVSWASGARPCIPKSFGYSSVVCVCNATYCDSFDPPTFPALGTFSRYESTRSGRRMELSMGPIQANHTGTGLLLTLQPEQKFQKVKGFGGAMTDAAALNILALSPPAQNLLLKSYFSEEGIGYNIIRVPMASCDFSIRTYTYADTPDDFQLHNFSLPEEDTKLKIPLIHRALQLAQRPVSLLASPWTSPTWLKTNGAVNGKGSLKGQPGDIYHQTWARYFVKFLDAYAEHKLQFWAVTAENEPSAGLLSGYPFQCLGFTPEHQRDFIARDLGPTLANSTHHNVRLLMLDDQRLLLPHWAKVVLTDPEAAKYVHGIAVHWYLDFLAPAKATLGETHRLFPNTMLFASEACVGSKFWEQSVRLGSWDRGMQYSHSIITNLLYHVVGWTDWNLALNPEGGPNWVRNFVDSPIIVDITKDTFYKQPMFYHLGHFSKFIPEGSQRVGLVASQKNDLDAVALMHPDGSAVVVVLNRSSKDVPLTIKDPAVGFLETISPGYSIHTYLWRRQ

biological target: Lysosomal acid glucosylceramidase (Homo sapiens) (UniProt P04062); experiment: qHTS Assay for Inhibitors and Activators of N370S glucocerebrosidase as a Potential Chaperone Treatment of Gaucher Disease: Purified Non-mutant Glucocerebrosidase; conditions: purified wildtype GC, 4MU-beta-glucoside fluorescence, 40 min
Excerpt: NIH Chemical Genomics Center [NCGC] NIH Molecular Libraries Probe Production Centers Network [MLPCN] MLPCN Grant: MH086442-01 Assay Submitter (PI): Wei Zheng Glucocerebrosidase (GC) catalyzes the hydrolysis of beta-glucocerebroside to glucose and ceramide in lysosomes. Mutations in the glucocerebrosidase gene result in Gaucher disease, an autosomal recessive lysosomal storage disorder. Many of the mutations encountered in patients with Gaucher disease are missense alterations that may cause misfolding, decreased stability and/or mistrafficking of this lysosomal protein. […] These inhibitors include iminosugar analogs and three non-iminosugar inhibitors identified from a previous HTS of 62,000 compounds with the wild type recombinant enzyme. However, the enhancement of enzyme activity by the chaperone action of an enzyme inhibitor must be balanced against the direct inhibition of the enzyme. An enzyme activator could also function as a chaperone by binding to the enzyme and helping to correct its misfolding and mistrafficking. While activators for GC have not yet been identified, they may have better therapeutic potential than inhibitors. Therefore the discovery and development of chemical activators may provide a new strategy for the chaperone therapy. We have optimized a new assay using N370S mutant GC derived from the spleen of a Gaucher patient. […]
NCGC Assay Protocol Summary: This is a fluorogenic enzyme assay with 4-methylumbelliferyl-beta-D-glucopyranoside as the substrate and purified wildtype glucocerebrosidase as the enzyme preparation. Upon the hydrolysis of this fluorogenic substrate, the resulting product, […] which can be detected by a standard fluorescence plate reader. […] The AC50 values were determined from concentration-response data modeled with the standard Hill equation. […] (5) Add 2 ul stop solution (1M NaOH and 1M Glycine mixture, pH 10) (6) Detect the assay plate in a ViewLux plate reader (PerkinElmer) with Ex=365 nm and Em=440nm. […]

Question: With Cc1cc(N2CCOCC2)nc2ccc(NC(=O)C3CCCCC3)cc12 as the compound, how does the Potency read?
Answer: active: 79.4 nM

Question: How did the Potency turn out when COc1ccc(Cl)cc1Nc1nc(NCCO)nc(N2CCCC2)n1 was run?
Answer: active: 398 nM

Question: For CCc1nnc(NC(=O)c2ccc(NS(=O)(=O)c3ccccc3)cc2)s1, which Potency is on record?
Answer: active: 224 nM
